Sequences of proteins named here, by UniProt entry; tags and fusion partners are left off.
UniProt P05412, whole entry: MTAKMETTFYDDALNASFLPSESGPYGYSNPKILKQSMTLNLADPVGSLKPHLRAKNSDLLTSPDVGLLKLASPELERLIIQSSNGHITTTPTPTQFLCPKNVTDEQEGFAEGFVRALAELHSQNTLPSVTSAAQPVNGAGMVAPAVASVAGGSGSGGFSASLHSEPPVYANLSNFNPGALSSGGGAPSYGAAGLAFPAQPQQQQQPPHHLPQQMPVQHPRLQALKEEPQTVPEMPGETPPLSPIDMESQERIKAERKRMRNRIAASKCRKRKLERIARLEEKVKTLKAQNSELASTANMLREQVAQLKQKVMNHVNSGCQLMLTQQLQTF

In EP4847020A1, “USE OF SMALL MOLECULE COMPOUND IN TREATMENT OF CARDIOVASCULAR DISEASES” (dated 2026):

Columns and labels:
[1] = molecular target: c-Jun/AP-1 (Homo sapiens, UniProt P05412); assay: TransAM kit test of c-Jun transcription factor binding activity to DNA; details: remaining binding of c-Jun to dsDNA; lower binding activity = stronger inhibition; drugs tested at 500-31.25 µM, concentration of the tabulated value not stated
Protocol: The binding ability of DNA to transcription factor was tested using TransAM kits (Active Motif 46096). The transcription factor was c-Jun/AP-1. Drugs at final concentrations of 500 µM, 250 µM, 125 µM, 62.5 µM, and 31.25 µM, along with 1 µL of cell extract containing the transcription factor, were sequentially added to a 96-well plate pre-coated with double-stranded DNA oligonucleotides. After incubation for 1 hour, the plate was incubated with an antibody against the c-JUN transcription factor. The absorbance at 450 nm was measured, with absorbance at 655 nm used as background. The binding activity of the dsDNA sequence to the transcription factor was measured. Lower binding activity indicates stronger inhibitory activity of compound.

[2] = tested on: HFpEF animal model; assay: HFpEF mouse model (HFD + L-NAME), Example 2: therapeutic efficacy; details: 12 mg/kg per administration, every other day; 3-week point after the administration
Protocol: The materials and reagents, animal experiment guidelines, and induction of heart failure with preserved ejection fraction model were the same as in Example 1.
The administration method was as follows: After successful induction of the animal model, the model treatment group was treated with the compounds of the present invention (e.g., compounds T3, T5, T8 to T16) or T-5224. The model control group was treated with the drug-free vehicle as a control. Mice fed normally with food and water throughout the induction period served as the negative control. After the mice were raised to 5 to 8 weeks of age, drug treatment was initiated following echocardiography and Doppler imaging confirmation of successful model establishment. For the treatment groups, T3, T5, T8 to T16, and T-5224 were administered at a dose of 12 mg/kg per administration based on mouse body weight. Specifically, the compounds were administered every other day. Each time, 0.54 mg of the compound was dissolved in 100 µL of 0.5% PVP solution (in practice, the drug solution was prepared based on the number of mice. For example, for 14 mice, 8 mg of the compound was dissolved in 1.5 mL of solution, and each mouse received 100 µL of the solution). Drug treatment was initiated after successful model induction. The control group received an equal volume of 0.5% PVP solution, with all other treatments being the same.

[3] = tested on: JUN transcription; assay: Dual-luciferase reporter assay (pGL4.44[luc2P/AP1 RE/Hygro]) in PMA-stimulated 293T cells, inhibition of transcriptional activity; details: for Luc: PMA 10 ng/ml, PMA alone = 100.0%
Protocol: 293T cells were passaged at a ratio of 1:3, plated, and incubated for 24 hours. The medium was replaced with antibiotic-free medium Opti-MEM (Gibco, 11058021). The 293T cells were transiently transfected with the luciferase reporter plasmid pGL4.44[luc2P/AP1 RE/Hygro] (Promega E411) and cultured for 24 hours. The cells were incubated for 1 hour in 1% PS/10% FBS/DMEM (Gibco, 11965092) containing the drugs at final concentrations of 50 µM, 25 µM, 12.5 µM, and 6.25 µM. Subsequently, the cells were stimulated with PMA (final concentration 10 ng/ml) (Sigma, 79346-5MG) and cultured for 34 hours. Lysates were measured using the Dual-Luciferase Reporter Assay System (Promega). Both the drugs and PMA were prepared as stock solutions in DMSO, diluted with culture medium, and added to the culture.

`CCOC(=O)c1ccc(COc2ccc(C(=O)c3ccc(OCC(C)C)cc3O)cc2CCC(=O)O)cc1` was tested, and the “DNA Binding Activity (%)” value [1] was 42.9%.
In the case of `O=C(O)CCc1cc(C(=O)c2ccc(OC3CCCC3)cc2O)ccc1OCc1ccc(C(=O)O)cc1`, the “DNA Binding Activity (%)” value [1] is reported as 14.8%, the “inhibitory effect on disease progression” value [2] is reported as “significantly inhibited disease progression” and the Luc ([3]; 6.25 µM) is reported as 80.8%. For the same compound, the Luc ([3]; 12.5 µM) was 126.6%, the Luc ([3]; 25 µM) was 88.4% and the Luc ([3]; 50 µM) was 54.6%. For the same compound, the “activity in inhibiting JUN transcription (in words)” value ([3]; AP1 luciferase reporter) was “showed activity in inhibiting JUN transcription”.
In the case of `CCOC(=O)CCc1cc(C(=O)c2ccc(OC3CCCC3)cc2O)ccc1OCc1ccc2nc[nH]c2c1`, the “DNA Binding Activity (%)” value [1] is reported as 103.4%.
For `CC(C)COc1ccc(C(=O)c2ccc(OCc3ccc(C(=O)O)cc3)c(CCC(=O)O)c2)c(O)c1`, the “DNA Binding Activity (%)” value [1] was 49.8%.
For `O=C(O)CCc1cc(C(=O)c2ccc(OCc3ccccc3)cc2O)ccc1OCc1ccc(C(=O)O)cc1`, the “DNA Binding Activity (%)” value [1] was 20.8%.
